Target: Recombinant human cathepsin S (CatS) (Homo sapiens, UniProt P25774)
Experiment: biochemical

Sequences of proteins named here, by UniProt entry; tags and fusion partners are left off. Residues count along the entry.
UniProt P25774, 115-331: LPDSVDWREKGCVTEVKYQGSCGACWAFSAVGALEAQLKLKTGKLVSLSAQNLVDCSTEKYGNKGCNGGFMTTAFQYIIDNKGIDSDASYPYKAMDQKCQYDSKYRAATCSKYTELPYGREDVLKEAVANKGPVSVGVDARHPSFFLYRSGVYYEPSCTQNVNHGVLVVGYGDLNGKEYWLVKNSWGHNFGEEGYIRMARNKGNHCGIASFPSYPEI

Row | SMILES | IC50
1 | CS(=O)(=O)N1CCc2c(c(-c3ccc(C(F)(F)F)c(SCCN4CCCCC4)c3)nn2CC(O)CN2CCC(c3ccccn3)CC2)C1 (stereo not shown) [Example 155, 1-[5-(Methylsulfonyl)-3-{3-[(2-piperidin-1-ylethyl)sulfanyl]-4-(trifluoromethyl)phenyl}-4,5,6,7-tetrahydro-1H-pyrazolo[4,3-c]pyridin-1-yl]-3-(4-pyridin-2-ylpiperidin-1-yl)propan-2-ol] | 10 nM
2 | CCCNCCSc1cc(-c2nn(CCCN3CCCCC3)c3c2CN(S(C)(=O)=O)CC3)ccc1C(F)(F)F [Example 151, N-[2-({5-[5-(Methylsulfonyl)-1-(3-piperidin-1-ylpropyl)-4,5,6,7-tetrahydro-1H-pyrazolo[4,3-c]pyridin-3-yl]-2-(trifluoromethyl)phenyl}sulfanyl)ethyl]propan-1-amine] | 700 nM
3 | CS(=O)(=O)N1CCc2c(c(-c3ccc(C(F)(F)F)c(SCCN4CCC(F)CC4)c3)nn2CC(O)CN2CCC(N)CC2)C1 (stereo not shown) [Example 476, 1-(4-Aminopiperidin-1-yl)-3-{3-[3-{[2-(4-fluoropiperidin-1-yl)ethyl]sulfanyl}-4-(trifluoromethyl)phenyl]-5-(methylsulfonyl)-4,5,6,7-tetrahydro-1H-pyrazolo[4,3-c]pyridin-1-yl}propan-2-ol] | 550 nM
4 | CNC(=O)CSc1cc(-c2nn(CCCN3CCC(N4CCCC4=O)CC3)c3c2CN(S(C)(=O)=O)CC3)ccc1C(F)(F)F [Example 86, 2-[5-(5-Methanesulfonyl-1-{3-[4-(2-oxo-pyrrolidin-1-yl)-piperidin-1-yl]-propyl}-4,5,6,7-tetrahydro-1H-pyrazolo[4,3-c]pyridin-3-yl)-2-trifluoromethyl-phenylsulfanyl]-N-methyl-acetamide] | 1150 nM
5 | CC(C)(O)C1CCN(C[C@H](O)Cn2nc(-c3ccc(C(F)(F)F)c(SCCN4CC[C@H](F)C4)c3)c3c2CCN(S(C)(=O)=O)C3)CC1 [Example 615, (2S)-1-{3-[3-({2-[(3S)-3-Fluoropyrrolidin-1-yl]ethyl}sulfanyl)-4-(trifluoromethyl)phenyl]-5-(methylsulfonyl)-4,5,6,7-tetrahydro-1H-pyrazolo[4,3-c]pyridin-1-yl}-3-[4-(1-hydroxy-1-methylethyl)piperidin-1-yl]propan-2-ol] | 360 nM
6 | CS(=O)(=O)N1CCc2c(c(-c3ccc(C(F)(F)F)c(SCCN4CCCCC4)c3)nn2CC(O)CN2CCCCC2)C1 (stereo not shown) [Example 153, 1-[5-(Methylsulfonyl)-3-{3-[(2-piperidin-1-ylethyl)sulfanyl]-4-(trifluoromethyl)phenyl}-4,5,6,7-tetrahydro-1H-pyrazolo[4,3-c]pyridin-1-yl]-3-piperidin-1-ylpropan-2-ol] | 170 nM
7 | N#Cc1ccccc1N1CCN(C[C@H](O)Cn2nc(-c3ccc(C(F)(F)F)c(SCCN4CCC(F)CC4)c3)c3c2CCNC3)CC1 [Example 538, 2-{4-[(2S)-3-{3-[3-{[2-(4-Fluoropiperidin-1-yl)ethyl]sulfanyl}-4-(trifluoromethyl)phenyl]-4,5,6,7-tetrahydro-1H-pyrazolo[4,3-c]pyridin-1-yl}-2-hydroxypropyl]piperazin-1-yl}benzonitrile] | 220 nM
8 | CS(=O)(=O)NCCSc1cc(-c2nn(CC(O)CN3CCN(c4ccccc4C#N)CC3)c3c2CN(S(C)(=O)=O)CC3)ccc1C(F)(F)F (stereo not shown) [Example 800, N-[2-({5-[1-{3-[4-(2-Cyanophenyl)piperazin-1-yl]-2-hydroxypropyl}-5-(methylsulfonyl)-4,5,6,7-tetrahydro-1H-pyrazolo[4,3-c]pyridin-3-yl]-2-(trifluoromethyl)phenyl}sulfanyl)ethyl]methanesulfonamide] | 20 nM
9 | O=C(C1CCC1)N1CCc2c(c(-c3ccc(C(F)(F)F)c(SCCN4CCC(F)CC4)c3)nn2C[C@@H](O)CN2CCCCC2)C1 [Example 424, (2S)-1-{5-(Cyclobutylcarbonyl)-3-[3-{[2-(4-fluoropiperidin-1-yl)ethyl]sulfanyl}-4-(trifluoromethyl)phenyl]-4,5,6,7-tetrahydro-1H-pyrazolo[4,3-c]pyridin-1-yl}-3-piperidin-1-ylpropan-2-ol] | 610 nM
10 | CS(=O)(=O)N1CCc2c(c(-c3ccc(C(F)(F)F)c(SCCN4CCC(O)CC4)c3)nn2CC(O)CN2CCC(N3CCCC3)CC2)C1 (stereo not shown) [Example 688, 1-(2-{[5-{1-[2-Hydroxy-3-(4-pyrrolidin-1-ylpiperidin-1-yl)propyl]-5-(methylsulfonyl)-4,5,6,7-tetrahydro-1H-pyrazolo[4,3-c]pyridin-3-yl}-2-(trifluoromethyl)phenyl]sulfanyl}ethyl)piperidin-4-ol] | 580 nM
11 | CC(F)(F)C1CCN(C[C@H](O)Cn2nc(-c3ccc(C(F)(F)F)c(SCCN4CC[C@H](F)C4)c3)c3c2CCN(S(C)(=O)=O)C3)CC1 [Example 636, (2S)-1-[4-(1,1-Difluoroethyl)piperidin-1-yl]-3-{3-[3-({2-[(3S)-3-fluoropyrrolidin-1-yl]ethyl}sulfanyl)-4-(trifluoromethyl)phenyl]-5-(methylsulfonyl)-4,5,6,7-tetrahydro-1H-pyrazolo[4,3-c]pyridin-1-yl}propan-2-ol] | 410 nM
12 | COC1CCN(CC(O)Cn2nc(-c3ccc(C(F)(F)F)c(SCC(=O)N4CCCC4)c3)c3c2CCNC3)CC1 (stereo not shown) [Example 302, 1-[4-(Methyloxy)piperidin-1-yl]-3-(3-{3-[(2-oxo-2-pyrrolidin-1-ylethyl)sulfanyl]-4-(trifluoromethyl)phenyl}-4,5,6,7-tetrahydro-1H-pyrazolo[4,3-c]pyridin-1-yl)propan-2-ol] | 2410 nM
13 | CS(=O)(=O)N1CCc2c(c(-c3ccc(C(F)(F)F)c(SCCN4CCC(NC(=O)CO)CC4)c3)nn2C[C@@H](O)CN2CCCCC2)C1 [Example 221, 2-Hydroxy-N-[1-(2-{[5-{1-[(2S)-2-hydroxy-3-piperidin-1-ylpropyl]-5-(methylsulfonyl)-4,5,6,7-tetrahydro-1H-pyrazolo[4,3-c]pyridin-3-yl}-2-(trifluoromethyl)phenyl]sulfanyl}ethyl)piperidin-4-yl]acetamide] | 2500 nM
14 | O=C(c1cccs1)N1CCc2c(c(-c3ccc(C(F)(F)F)c(SCCN4CCC(F)CC4)c3)nn2C[C@@H](O)CN2CCCCC2)C1 [Example 577, (2S)-1-{3-[3-{[2-(4-Fluoropiperidin-1-yl)ethyl]sulfanyl}-4-(trifluoromethyl)phenyl]-5-(2-thienylcarbonyl)-4,5,6,7-tetrahydro-1H-pyrazolo[4,3-c]pyridin-1-yl}-3-piperidin-1-ylpropan-2-ol] | 350 nM
15 | CS(=O)(=O)N1CCc2c(c(-c3ccc(C(F)(F)F)c(SCCN4CCC(O)CC4)c3)nn2CC(O)CN2CCC(c3ccccc3)CC2)C1 (stereo not shown) [Example 706, 1-(2-{[5-{1-[2-Hydroxy-3-(4-phenylpiperidin-1-yl)propyl]-5-(methylsulfonyl)-4,5,6,7-tetrahydro-1H-pyrazolo[4,3-c]pyridin-3-yl}-2-(trifluoromethyl)phenyl]sulfanyl}ethyl)piperidin-4-ol] | 15 nM
16 | CC1CCN(CCSc2cc(-c3nn(C[C@@H](O)CN4CCC(N5C[C@H](O)CC5=O)CC4)c4c3CN(S(C)(=O)=O)CC4)ccc2C(F)(F)F)CC1 [Example 809, (4R)-4-Hydroxy-1-{1-[(2S)-2-hydroxy-3-{3-[3-{[2-(4-methylpiperidin-1-yl)ethyl]sulfanyl}-4-(trifluoromethyl)phenyl]-5-(methylsulfonyl)-4,5,6,7-tetrahydro-1H-pyrazolo[4,3-c]pyridin-1-yl}propyl]piperidin-4-yl}pyrrolidin-2-one] | 50 nM
17 | CS(=O)(=O)N1CCc2c(c(-c3ccc(C(F)(F)F)c(SCCNCCc4ccccc4)c3)nn2CCCN2CCC(N3CCCC3=O)CC2)C1 [Example 767, 1-[1-(3-{5-(Methylsulfonyl)-3-[3-({2-[(2-phenylethyl)amino]ethyl}sulfanyl)-4-(trifluoromethyl)phenyl]-4,5,6,7-tetrahydro-1H-pyrazolo[4,3-c]pyridin-1-yl}propyl)piperidin-4-yl]pyrrolidin-2-one] | 430 nM
18 | CS(=O)(=O)N1CCc2c(c(-c3ccc(C(F)(F)F)c(SCCN4CC[C@H](F)C4)c3)nn2C[C@@H](O)CN2C=NCCC2)C1 [Example 353, (2S)-1-(5,6-Dihydropyrimidin-1(4H)-yl)-3-{3-[3-({2-[(3S)-3-fluoropyrrolidin-1-yl]ethyl}sulfanyl)-4-(trifluoromethyl)phenyl]-5-(methylsulfonyl)-4,5,6,7-tetrahydro-1H-pyrazolo[4,3-c]pyridin-1-yl}propan-2-ol] | 10100 nM
19 | N#Cc1ccccc1N1CCN(CC(O)Cn2nc(-c3ccc(C(F)(F)F)c(SCCN4CCCCC4)c3)c3c2CCN(C(=O)CO)C3)CC1 (stereo not shown) [Example 676, 2-(4-{2-Hydroxy-3-[5-(hydroxyacetyl)-3-{3-[(2-piperidin-1-ylethyl)sulfanyl]-4-(trifluoromethyl)phenyl}-4,5,6,7-tetrahydro-1H-pyrazolo[4,3-c]pyridin-1-yl]propyl}piperazin-1-yl)benzonitrile] | 20 nM
20 | CC1CCCN1C(=O)CSc1cc(-c2nn(CCCN3CCC(N4CCCC4=O)CC3)c3c2CN(S(C)(=O)=O)CC3)ccc1C(F)(F)F (stereo not shown) [Example 76, 1-{1-[3-(5-Methanesulfonyl-3-{3-[2-(2-methyl-pyrrolidin-1-yl)-2-oxo-ethylsulfanyl]-4-trifluoromethyl-phenyl}-4,5,6,7-tetrahydro-pyrazolo[4,3-c]pyridin-1-yl)-propyl]-piperidin-4-yl}-pyrrolidin-2-one] | 100 nM
21 | OC(CN1CCC(O)(c2cccc(C(F)(F)F)c2)CC1)Cn1nc(-c2ccc(C(F)(F)F)c(SCCN3CCCCC3)c2)c2c1CCNC2 (stereo not shown) [Example 675, 1-[2-Hydroxy-3-(3-{3-[(2-piperidin-1-ylethyl)sulfanyl]-4-(trifluoromethyl)phenyl}-4,5,6,7-tetrahydro-1H-pyrazolo[4,3-c]pyridin-1-yl)propyl]-4-[3-(trifluoromethyl)phenyl]piperidin-4-ol] | 890 nM
22 | CS(=O)(=O)N1CCc2c(c(-c3ccc(C(F)(F)F)c(SCCN4CC[C@H](F)C4)c3)nn2C[C@@H](O)CN2CCCCCC2)C1 [Example 404, (2S)-1-Azepan-1-yl-3-{3-[3-({2-[(3S)-3-fluoropyrrolidin-1-yl]ethyl}sulfanyl)-4-(trifluoromethyl)phenyl]-5-(methylsulfonyl)-4,5,6,7-tetrahydro-1H-pyrazolo[4,3-c]pyridin-1-yl}propan-2-ol] | 1100 nM
